PubChem BioAssay AID623877 (Johns Hopkins Ion Channel Center, 2012)
The list shows a part of the results, in another mix than the full data. Some of these compounds have results that are not shown, active ones among them. Active and inactive are the calls of the source.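 How the source made its calls: active means fluorescence-ratio B-score plate-corrected deviation score at least 3 library SD below zero, with starting fluorescence score within 5 deviations; inactive means the rest.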

Chains of the proteins cited; added tags and fusions are not shown.
UniProt Q8BHY3, whole entry: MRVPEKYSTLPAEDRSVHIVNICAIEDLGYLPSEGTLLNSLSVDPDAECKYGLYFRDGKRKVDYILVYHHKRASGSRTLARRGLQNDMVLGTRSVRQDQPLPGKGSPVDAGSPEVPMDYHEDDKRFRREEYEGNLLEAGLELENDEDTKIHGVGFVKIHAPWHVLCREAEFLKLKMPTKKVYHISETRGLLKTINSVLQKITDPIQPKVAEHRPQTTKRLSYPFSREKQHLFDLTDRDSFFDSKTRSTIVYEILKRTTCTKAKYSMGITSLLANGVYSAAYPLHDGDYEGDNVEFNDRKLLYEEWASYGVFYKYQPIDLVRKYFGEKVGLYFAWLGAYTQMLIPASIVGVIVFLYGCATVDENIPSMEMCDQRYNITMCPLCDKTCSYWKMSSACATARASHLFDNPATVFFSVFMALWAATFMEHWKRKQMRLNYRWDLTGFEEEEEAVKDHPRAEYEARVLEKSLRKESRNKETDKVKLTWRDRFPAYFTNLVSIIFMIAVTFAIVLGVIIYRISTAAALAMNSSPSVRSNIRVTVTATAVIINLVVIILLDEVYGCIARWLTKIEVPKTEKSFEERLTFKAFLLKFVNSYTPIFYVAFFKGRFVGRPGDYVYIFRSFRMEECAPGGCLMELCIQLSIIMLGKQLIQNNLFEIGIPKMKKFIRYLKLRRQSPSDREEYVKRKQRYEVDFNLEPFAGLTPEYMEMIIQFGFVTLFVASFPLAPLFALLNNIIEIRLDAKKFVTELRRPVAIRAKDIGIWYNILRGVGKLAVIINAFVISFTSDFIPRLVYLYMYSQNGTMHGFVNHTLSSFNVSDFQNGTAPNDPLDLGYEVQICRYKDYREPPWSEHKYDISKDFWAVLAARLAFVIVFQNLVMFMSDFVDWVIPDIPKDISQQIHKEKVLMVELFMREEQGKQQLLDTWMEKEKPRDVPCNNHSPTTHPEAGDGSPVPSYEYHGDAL

What follows are compounds tested against Anoctamin-1 (Mus musculus) (UniProt Q8BHY3) (assay: mouse ANO1 channel activation – cell-based, HTS, primary screen (AID 623877)). Details: HEK293 TMEM16A/YFP-H148Q/I152L, iodide quench fluorescence; at 10 µM.

Compound | outcome
CN(C)C1(CNC(=O)c2ccc(Br)cc2)CCCCC1 | inactive
COc1cc(C(=O)NCC2(N(C)C)CCCCC2)c([N+](=O)[O-])cc1OC | inactive
COc1ccc(Cl)cc1C(=O)NCC1(N(C)C)CCCCC1 | inactive
COc1cccc(C(=O)NCC2(N3CCCCC3)CCCCC2)c1 | inactive
O=C(NCC1(N2CCCCC2)CCCCC1)c1cccc(Cl)c1 | inactive
O=C(OC1CN2CCC1CC2)C(CO)(c1ccccc1)c1ccccc1 (stereo not given) | inactive
COc1ccc(Br)c(C(=O)NCC2(N3CCCCC3)CCCCC2)c1 | inactive
CN(C)c1cccc(C(=O)NCC2(N(C)C)CCCCC2)c1 | inactive
O=C(OCCN1CCCC1)C(O)(c1ccccc1)c1ccccc1 | inactive
CC(C)Oc1ccc(C(=O)NCC2(N(C)C)CCCCC2)cc1 | inactive
O=C(NCC1(N2CCCCC2)CCCCC1)c1cc([N+](=O)[O-])ccc1Cl | inactive
CN1[C@@H]2CC[C@H]1CC(OC(=O)C(O)(c1ccccc1)c1ccccc1)C2 (stereo not given in full) | inactive
CC(C)N1C(=O)CC2(CCN(CCOC(=O)C(O)(c3ccccc3)c3ccccc3)CC2)C1=O | inactive
COc1cc(SC)ccc1C(=O)NCC1(N(C)C)CCCCC1 | inactive
CCN(CC)CC(C)C(C)OC(=O)C(O)(c1ccccc1)c1ccccc1 (stereo not given) | inactive
Cc1ccc(C(=O)NCC2(N3CCCCC3)CCCCC2)cc1 | inactive
CN(C)c1ccc(C(=O)NCC2(N(C)C)CCCCC2)cc1 | inactive
CN(C)C1CCCC1OC(=O)C(O)(c1ccccc1)c1ccccc1 (stereo not given) | inactive
Cc1ccccc1C(=O)NCC1(N2CCCCC2)CCCCC1 | inactive
O=C(NCC1(N2CCCCC2)CCCCC1)c1cc(F)c(F)cc1Cl | inactive
C=CCN1CCN(CCOC(=O)C(O)(c2ccccc2)c2ccccc2)CC1 | inactive
O=C(NCC1(N2CCCCC2)CCCCC1)c1cccc(Br)c1 | inactive
CCN1CCCC(OC(=O)C2(O)c3ccccc3C=Cc3ccccc32)C1 (stereo not given) | inactive
Cc1cc(C(=O)NCC2(N3CCCCC3)CCCCC2)ccc1[N+](=O)[O-] | inactive
COc1ccc(C(=O)NCC2(N(C)C)CCCCC2)cc1 | inactive
